This test concerns the target sGC α1/β1 heterodimer (Homo sapiens, UniProt Q02108+Q02153). Briefly: Cell-based sGC functional assay (CASA assay): cGMP generation in CHO-K1/sGC cells, HTRF detection. An excerpt: Biological Assay 1: Cell-Based sGC Functional Assay (CASA Assay)
sGC is a heme-containing enzyme that converts GTP to secondary messenger cGMP. Increases in cGMP levels affect several physiological processes including vasorelaxation through multiple downstream pathways. […] Heme-dependent activators (HDAs) preferentially activate sGC containing a ferrous heme group. To determine the effect of sGC activators on enzyme activity, the CASA assay was developed to monitor the generation of cGMP in a cell line that stably expresses the heterodimeric sGC protein.
A CHO-K1 cell line stably expressing the sGC α1/β1 heterodimer was generated using a standard transfection protocol. CHO-K1 cells were transfected with plasmids pIREShyghsGCal and pIRESneo-hsGCβ1 simultaneously using FUGENE reagent. Clones that stably express both subunits were selected with hygromycin and neomycin for 2 weeks. Clone #7 was chosen for the assay and was designated CHO-K1/sGC. […] The level of intracellular cGMP was determined using an HTRF-based assay kit (CisBio, 62GM2PEC), which detects the displacement of a fluorescence labeled cGMP from its specific antibody. […]
[drawing 597] […] The test compounds' activities were then expressed as a percentage of Compound A, the standard in every experiment. This percent activation was calculated either in the presence or absence of DETA-NO which was then plotted. […]
(In TR-FRET formats the signal depends on donor and acceptor labels being close together.)

Chains of the proteins cited; added tags and fusions are not shown.
UniProt Q02108, whole entry: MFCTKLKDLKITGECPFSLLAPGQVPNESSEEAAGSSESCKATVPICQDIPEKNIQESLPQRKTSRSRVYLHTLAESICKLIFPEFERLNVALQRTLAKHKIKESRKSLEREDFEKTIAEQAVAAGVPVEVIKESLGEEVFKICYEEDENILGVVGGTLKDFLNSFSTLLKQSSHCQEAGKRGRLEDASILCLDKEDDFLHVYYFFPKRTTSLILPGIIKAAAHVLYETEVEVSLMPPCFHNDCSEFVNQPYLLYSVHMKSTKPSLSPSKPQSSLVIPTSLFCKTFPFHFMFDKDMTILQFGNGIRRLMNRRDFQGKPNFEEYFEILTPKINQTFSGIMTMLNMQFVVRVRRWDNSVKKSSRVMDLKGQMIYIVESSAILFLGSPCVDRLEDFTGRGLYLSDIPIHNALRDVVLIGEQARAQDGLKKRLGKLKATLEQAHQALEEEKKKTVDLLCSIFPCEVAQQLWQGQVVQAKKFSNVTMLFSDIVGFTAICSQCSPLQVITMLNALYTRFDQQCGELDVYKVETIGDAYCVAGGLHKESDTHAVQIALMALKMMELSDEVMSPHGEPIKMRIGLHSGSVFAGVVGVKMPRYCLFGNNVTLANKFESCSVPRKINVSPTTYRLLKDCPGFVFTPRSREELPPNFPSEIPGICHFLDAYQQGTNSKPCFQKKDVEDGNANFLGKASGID
UniProt Q02153, whole entry: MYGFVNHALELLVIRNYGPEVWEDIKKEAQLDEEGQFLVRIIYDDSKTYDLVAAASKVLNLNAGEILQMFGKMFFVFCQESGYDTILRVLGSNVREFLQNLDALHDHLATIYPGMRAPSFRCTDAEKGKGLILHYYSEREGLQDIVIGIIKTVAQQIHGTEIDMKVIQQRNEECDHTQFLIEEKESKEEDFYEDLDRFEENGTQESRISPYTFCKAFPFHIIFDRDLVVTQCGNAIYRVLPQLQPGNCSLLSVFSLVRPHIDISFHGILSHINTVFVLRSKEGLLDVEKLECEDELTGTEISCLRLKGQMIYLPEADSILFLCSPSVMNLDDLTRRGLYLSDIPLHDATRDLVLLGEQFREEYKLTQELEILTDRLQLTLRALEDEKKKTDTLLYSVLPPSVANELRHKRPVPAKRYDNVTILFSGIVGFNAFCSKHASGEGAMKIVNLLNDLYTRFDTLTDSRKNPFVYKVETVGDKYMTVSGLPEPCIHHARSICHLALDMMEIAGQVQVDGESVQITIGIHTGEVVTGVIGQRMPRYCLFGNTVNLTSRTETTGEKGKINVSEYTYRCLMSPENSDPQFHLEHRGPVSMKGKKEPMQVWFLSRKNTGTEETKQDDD

These results are taken from US9796733B2, “Imidazo-pyrazine derivatives useful as soluble guanylate cyclase activators” (Merck Sharp & Dohme Corp., priority 2014, dated 2017).

Turning to `COC(=O)c1c(C)nc2c(CCC(F)(F)C(F)(F)F)nc(-c3nc(N)c4c(n3)NC(=O)C4(C)c3ccc(F)cc3)cn12` (centres unmarked), the “% Act.” value (percent activation relative to standard Compound A in CHO-K1/sGC cells) was 92%. Besides, the EC50 (read-out: IP, inflection point (IP) of cGMP generation in CHO-K1/sGC cells, 4P fit, activity expressed as percentage of Compound A) is 1690 nM.
